Test results: ChEMBL document CHEMBL1127385, “Synthesis and diuretic activity of alkyl- and arylguanidine analogs of N,N'-dicyclohexyl-4-morpholinecarboxamidine in rats and dogs” (J Med Chem, 1994)

Assays:
Rattus norvegicus [1] = assay: Ratio of Total electrolytic excretion of sodium and potassium in urine of rats after peroral administration of 302 uM/Kg of drug; assay type: ADME, organism-based; details: in vivo, po
Rattus norvegicus [2] = assay: Ratio of Total electrolytic excretion of sodium and potassium in urine of rats after peroral administration of 30.2 uM/Kg of drug; assay type: ADME, organism-based; details: in vivo, po
Rattus norvegicus [3] = assay: Ratio of Total electrolytic excretion of sodium and potassium in urine of rats after peroral administration of 9.06 uM/Kg of drug; assay type: ADME, organism-based; details: in vivo, po
Canis familiaris [4] = assay: Ratio of Total electrolytic excretion of sodium and potassium in urine of dogs after peroral administration of 9.6 uM/Kg of drug; assay type: ADME, organism-based, Canis lupus familiaris; details: dog, in vivo, po
Canis familiaris [5] = assay: Ratio of Total electrolytic excretion of sodium and potassium in urine of dogs after peroral administration of 9.06 uM/Kg of drug; assay type: ADME, organism-based, Canis lupus familiaris; details: dog, in vivo, po
Rattus norvegicus [6] = assay: Ratio of Total electrolytic excretion of sodium and potassium in urine of rats after peroral administration of 90.6 uM/Kg of drug; assay type: ADME, organism-based; details: in vivo, po

Ratio (Rattus norvegicus [1]): 4.8
Ratio (Rattus norvegicus [2]): 2.9
Ratio (Rattus norvegicus [3]): 2.6
Ratio (Canis familiaris [4]): 4.4
Ratio (Canis familiaris [5]): 5.8
Ratio (Rattus norvegicus [6]): 4.1
SMILES: NS(=O)(=O)c1cc(C(=O)O)c(NCc2ccco2)cc1Cl [FUROSEMIDE]
